The subject of this test is IL-8 receptor (differentiated HL-60 cells). In words: Calcium mobilization in differentiated HL-60 cells, Fluo-4/AM. In kind it is cell-based. The settings on record: over control wells (plain medium = 1.0), about 10 to 200 μg/ml. The procedure: The HL-60 cells are cultured as described above, harvested and suspended in Tyrode's salt solution at a density of about 2×10^6 cells/ml. The Tyrode's salt solution contains about 137 mM NaCl, 2.7 mM KCl, 1 mM MgCl2, 1 mM CaCl2, 0.2 mM NaH2PO4, 12 mM NaHCO3, and 5.5 mM glucose.
The cells are labeled with 4 μM of Fluo-4/AM (Molecular Probes, Inc.) for 45 minutes at 37° C. to measure calcium mobilization from cells. The label is a dye that fluoresces when bound to calcium. […] An increase in fluorescence indicates an increase in calcium mobilization. The cells are washed three times with the Tyrode's salt solution after labeling and re-suspended at 5×10^6 cells/ml.
Changes in the level of cellular fluorescence are read in a Thermo Labsystems Fluorskan Acsent fluorescence plate reader (VWR Scientific Prod's). The controls include cells treated with either the native chemokine or the plain medium of Tyrode's Salt Solution. Data is expressed using 1.0 as the standard level of fluorescence in the plain medium. The reported values represent the mean of at least duplicate measurements from wells in one or more experiments.
On the technique in general: Calcium flux is commonly read through the fluorescence of an indicator in the cells.

On to `CC[C@H](C)[C@H](NC(=O)[C@H](CS)NC(=O)[C@H](CCC(N)=O)NC(=O)[C@H](CS)NC(=O)[C@H](CCCNC(=N)N)NC(=O)[C@H](CC(C)C)NC(=O)[C@H](CCC(=O)O)NC(=O)[C@H](CCCCN)NC(=O)[C@H](C)NC(=O)[C@@H](N)CO)C(=O)N[C@@H](CCCCN)C(=O)N[C@H](C(=O)N[C@@H](Cc1ccc(O)cc1)C(=O)N[C@@H](CO)C(=O)N[C@@H](CCCCN)C(=O)NCCCCCCCCCCC(=O)N[C@@H](CC(N)=O)C(=O)N[C@@H](Cc1c[nH]c2ccccc12)C(=O)N[C@H](C(=O)N[C@@H](CCC(N)=O)C(=O)N[C@@H](CCCNC(=N)N)C(=O)N[C@H](C(=O)N[C@H](C(=O)N[C@@H](CCC(=O)O)C(=O)N[C@@H](CCCCN)C(=O)N[C@@H](Cc1ccccc1)C(=O)N[C@@H](CC(C)C)C(=O)N[C@@H](CCCCN)C(=O)N[C@@H](CCCNC(=N)N)C(=O)N[C@@H](C)C(=O)N[C@@H](CCC(=O)O)C(=O)N[C@@H](CC(N)=O)C(N)=O)C(C)C)C(C)C)C(C)C)[C@@H](C)O` [SEQ ID NO:1646], for which the “Average fold increase in calcium mobilization” value is reported as 33.9.
Consider `CC[C@H](C)[C@H](NC(=O)[C@H](CO)NC(=O)[C@H](CCC(N)=O)NC(=O)[C@H](CO)NC(=O)[C@H](CCCNC(=N)N)NC(=O)[C@H](CC(C)C)NC(=O)[C@H](CCC(=O)O)NC(=O)[C@H](CCCCN)NC(=O)[C@H](C)NC(=O)[C@@H](N)CO)C(=O)N[C@@H](CCCCN)C(=O)N[C@H](C(=O)N[C@@H](Cc1ccc(O)cc1)C(=O)N[C@@H](CO)C(=O)N[C@@H](CCCCN)C(=O)NCCCCCCCCCCC(=O)N[C@@H](CC(N)=O)C(=O)N[C@@H](Cc1c[nH]c2ccccc12)C(=O)N[C@H](C(=O)N[C@@H](CCC(N)=O)C(=O)N[C@@H](CCCNC(=N)N)C(=O)N[C@H](C(=O)N[C@H](C(=O)N[C@@H](CCC(=O)O)C(=O)N[C@@H](CCCCN)C(=O)N[C@@H](Cc1ccccc1)C(=O)N[C@@H](CC(C)C)C(=O)N[C@@H](CCCCN)C(=O)N[C@@H](CCCNC(=N)N)C(=O)N[C@@H](C)C(=O)N[C@@H](CCC(=O)O)C(=O)N[C@@H](CC(N)=O)C(N)=O)C(C)C)C(C)C)C(C)C)[C@@H](C)O` [SEQ ID NO:1649], for which the “Average fold increase in calcium mobilization” value worked out at 28.2.
`CC[C@H](C)[C@H](NC(=O)[C@H](Cc1ccccc1)NC(=O)[C@H](CCC(N)=O)NC(=O)[C@H](Cc1ccc(O)cc1)NC(=O)[C@H](CCCNC(=N)N)NC(=O)[C@H](CC(C)C)NC(=O)[C@H](CCC(=O)O)NC(=O)[C@H](CCCCN)NC(=O)[C@H](C)NC(=O)[C@H](CO)NC(C)=O)C(=O)N[C@@H](CCCCN)C(=O)N[C@H](C(=O)N[C@@H](Cc1ccc(O)cc1)C(=O)N[C@@H](CO)C(=O)N[C@@H](CCCCN)C(=O)NCCCCCCCCCCC(=O)N[C@@H](CC(N)=O)C(=O)N[C@@H](Cc1c[nH]c2ccccc12)C(=O)N[C@H](C(=O)N[C@@H](CCC(N)=O)C(=O)N[C@@H](CCCNC(=N)N)C(=O)N[C@H](C(=O)N[C@H](C(=O)N[C@@H](CCC(=O)O)C(=O)N[C@@H](CCCCN)C(=O)N[C@@H](Cc1ccccc1)C(=O)N[C@@H](CC(C)C)C(=O)N[C@@H](CCCCN)C(=O)N[C@@H](CCCNC(=N)N)C(=O)N[C@@H](C)C(=O)N[C@@H](CCC(=O)O)C(=O)N[C@@H](CC(N)=O)C(N)=O)C(C)C)C(C)C)C(C)C)[C@@H](C)O` [SEQ ID NO:1655]: the “Average fold increase in calcium mobilization” value (listed as 1655) was determined as 41.8.
For the compound `CC[C@H](C)[C@H](NC(=O)[C@H](C)NC(=O)[C@H](CCC(N)=O)NC(=O)[C@H](Cc1ccc(O)cc1)NC(=O)[C@H](CCCNC(=N)N)NC(=O)[C@H](CC(C)C)NC(=O)[C@H](CCC(=O)O)NC(=O)[C@H](CCCCN)NC(=O)[C@H](C)NC(=O)[C@@H](N)CO)C(=O)N[C@@H](CCCCN)C(=O)N[C@H](C(=O)N[C@@H](Cc1ccc(O)cc1)C(=O)N[C@@H](CO)C(=O)N[C@@H](CCCCN)C(=O)NCCCCCCCCCCC(=O)N[C@@H](CC(N)=O)C(=O)N[C@@H](Cc1c[nH]c2ccccc12)C(=O)N[C@H](C(=O)N[C@@H](CCC(N)=O)C(=O)N[C@@H](CCCNC(=N)N)C(=O)N[C@H](C(=O)N[C@H](C(=O)N[C@@H](CCC(=O)O)C(=O)N[C@@H](CCCCN)C(=O)N[C@@H](Cc1ccccc1)C(=O)N[C@@H](CC(C)C)C(=O)N[C@@H](CCCCN)C(=O)N[C@@H](CCCNC(=N)N)C(=O)N[C@@H](C)C(=O)N[C@@H](CCC(=O)O)C(=O)N[C@@H](CC(N)=O)C(N)=O)C(C)C)C(C)C)C(C)C)[C@@H](C)O` [SEQ ID NO:1656], the “Average fold increase in calcium mobilization” value is given as 86.8.
As for `CC[C@H](C)[C@H](NC(=O)[C@H](Cc1ccccc1)NC(=O)[C@H](CCC(N)=O)NC(=O)[C@H](Cc1ccc(O)cc1)NC(=O)[C@H](CCCNC(=N)N)NC(=O)[C@H](CC(C)C)NC(=O)[C@H](CCC(=O)O)NC(=O)[C@H](CCCCN)NC(=O)[C@H](C)NC(=O)[C@H](CO)NC(C)=O)C(=O)N[C@@H](CCCNC(=N)N)C(=O)N[C@H](C(=O)N[C@@H](Cc1ccc(O)cc1)C(=O)N[C@@H](CO)C(=O)N[C@@H](CCCCN)C(=O)NCCCCCCCCCCC(=O)N[C@@H](CC(N)=O)C(=O)N[C@@H](Cc1c[nH]c2ccccc12)C(=O)N[C@H](C(=O)N[C@@H](CCC(N)=O)C(=O)N[C@@H](CCCNC(=N)N)C(=O)N[C@H](C(=O)N[C@H](C(=O)N[C@@H](CCC(=O)O)C(=O)N[C@@H](CCCCN)C(=O)N[C@@H](Cc1ccccc1)C(=O)N[C@@H](CC(C)C)C(=O)N[C@@H](CCCCN)C(=O)N[C@@H](CCCNC(=N)N)C(=O)N[C@@H](C)C(=O)N[C@@H](CCC(=O)O)C(=O)N[C@@H](CC(N)=O)C(N)=O)C(C)C)C(C)C)C(C)C)[C@@H](C)O` [SEQ ID NO:1661], the “Average fold increase in calcium mobilization” value amounted to 100.6.
For `CC[C@H](C)[C@H](NC(=O)[C@H](Cc1ccccc1)NC(=O)[C@H](CCC(N)=O)NC(=O)[C@H](C)NC(=O)[C@H](CCCNC(=N)N)NC(=O)[C@H](CC(C)C)NC(=O)[C@H](CCC(=O)O)NC(=O)[C@H](CCCCN)NC(=O)[C@H](C)NC(=O)[C@@H](N)CO)C(=O)N[C@@H](CCCCN)C(=O)N[C@H](C(=O)N[C@@H](Cc1ccc(O)cc1)C(=O)N[C@@H](CO)C(=O)N[C@@H](CCCCN)C(=O)NCCCCCCCCCCC(=O)N[C@@H](CC(N)=O)C(=O)N[C@@H](Cc1c[nH]c2ccccc12)C(=O)N[C@H](C(=O)N[C@@H](CCC(N)=O)C(=O)N[C@@H](CCCNC(=N)N)C(=O)N[C@H](C(=O)N[C@H](C(=O)N[C@@H](CCC(=O)O)C(=O)N[C@@H](CCCCN)C(=O)N[C@@H](Cc1ccccc1)C(=O)N[C@@H](CC(C)C)C(=O)N[C@@H](CCCCN)C(=O)N[C@@H](CCCNC(=N)N)C(=O)N[C@@H](C)C(=O)N[C@@H](CCC(=O)O)C(=O)N[C@@H](CC(N)=O)C(N)=O)C(C)C)C(C)C)C(C)C)[C@@H](C)O` [SEQ ID NO:1663], the “Average fold increase in calcium mobilization” value (listed as 1663) turned out to be 112.9.

For the origin of these results see patent US20070160574A1, “Design of CXC chemokine analogs for the treatment of human diseases” (priority 2000, published 2007).
